The target of one assay is T1, GLP-1 receptor (Homo sapiens, UniProt P43220).
T1 construct: expressed in transfected cells; host or cells: HEK293
As to the kind of experiment: cAMP induction, firefly luciferase reporter assay, GLP-1 receptor. It is filed as cell-based. The settings on record: GLP-1 Receptor EC50 (nM), Table 1; HEK293 cells co-transfected with receptor and CRE-luciferase. How it is done: (§1) The ability of each peptide to induce cAMP was measured in a firefly luciferase-based reporter assay.
(§2) At the end of the incubation, 100 μL of LucLite luminescence substrate reagent (Perkin Elmer, Wellesley, Mass.) were added to each well. The plate was shaken briefly, incubated 10 min in the dark and light output was measured on MicroBeta-1450 liquid scintillation counter (Perkin-Elmer, Wellesley, Mass.).
A general note: Reporter assays use an easily measured gene product as a stand-in for the process of interest.

Amino acid sequences for entries named in this document (tags omitted). Residues count along the entry.
UniProt P43220, 24-463: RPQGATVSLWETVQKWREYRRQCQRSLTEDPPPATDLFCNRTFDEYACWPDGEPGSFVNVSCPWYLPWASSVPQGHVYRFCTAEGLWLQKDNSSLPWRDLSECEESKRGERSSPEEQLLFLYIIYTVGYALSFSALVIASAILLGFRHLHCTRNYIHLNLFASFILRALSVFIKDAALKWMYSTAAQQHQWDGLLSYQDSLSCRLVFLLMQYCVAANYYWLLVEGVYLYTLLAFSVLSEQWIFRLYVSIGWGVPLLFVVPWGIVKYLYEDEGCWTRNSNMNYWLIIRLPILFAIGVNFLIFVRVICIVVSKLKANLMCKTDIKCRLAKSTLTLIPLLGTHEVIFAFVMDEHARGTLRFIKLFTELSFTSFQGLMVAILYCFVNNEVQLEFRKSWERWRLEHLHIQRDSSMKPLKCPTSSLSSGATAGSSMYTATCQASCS
UniProt P47871, 26-477: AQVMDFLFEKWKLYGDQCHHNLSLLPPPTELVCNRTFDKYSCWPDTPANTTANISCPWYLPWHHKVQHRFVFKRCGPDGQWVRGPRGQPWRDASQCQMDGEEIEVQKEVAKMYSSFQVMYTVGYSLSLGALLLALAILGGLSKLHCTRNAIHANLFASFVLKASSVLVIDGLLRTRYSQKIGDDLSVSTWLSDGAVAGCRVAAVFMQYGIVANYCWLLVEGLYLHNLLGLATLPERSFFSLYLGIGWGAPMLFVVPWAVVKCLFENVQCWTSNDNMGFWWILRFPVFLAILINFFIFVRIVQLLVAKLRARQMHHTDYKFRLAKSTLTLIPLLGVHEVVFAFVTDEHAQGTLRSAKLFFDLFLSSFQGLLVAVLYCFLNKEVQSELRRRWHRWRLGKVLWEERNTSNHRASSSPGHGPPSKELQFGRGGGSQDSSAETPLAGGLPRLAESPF

The target of another assay is T2, glucagon receptor (Homo sapiens, UniProt P47871).
T2 construct: expressed in transfected cells; host or cells: HEK293
As to the kind of experiment: cAMP induction, firefly luciferase reporter assay, glucagon receptor. It is filed as cell-based. The settings on record: Glucagon Receptor EC50 (nM), Table 1; HEK293 cells co-transfected with receptor and CRE-luciferase. How it is done:
as §1, §2

The term EC50 denotes the concentration giving half of the maximal effect. Higher therefore signals weaker potency.

Turning to `CSCC[C@H](NC(=O)[C@H](CC(C)C)NC(=O)[C@H](Cc1c[nH]c2ccccc12)NC(=O)[C@H](CCC(N)=O)NC(=O)[C@@H](NC(=O)[C@H](Cc1ccccc1)NC(=O)[C@H](CC(=O)O)NC(=O)[C@@H]1CCNC(=O)CC[C@H](NC(=O)[C@H](CC(=O)O)NC(=O)[C@H](CC(C)C)NC(=O)[C@H](Cc2ccc(O)cc2)NC(=O)[C@H](CCCCN)NC(=O)[C@H](CO)NC(=O)[C@H](Cc2ccc(O)cc2)NC(=O)[C@H](CC(=O)O)NC(=O)[C@H](CO)NC(=O)[C@@H](NC(=O)[C@H](Cc2ccccc2)NC(=O)[C@@H](NC(=O)CNC(=O)[C@H](CCC(N)=O)NC(=O)[C@H](CO)NC(=O)[C@@H](N)Cc2c[nH]cn2)[C@@H](C)O)[C@@H](C)O)C(=O)N[C@@H](CCCNC(=N)N)C(=O)N[C@@H](CCCNC(=N)N)C(=O)N[C@@H](C)C(=O)N1)C(C)C)C(=O)N[C@@H](CC(N)=O)C(=O)N[C@H](C(=O)O)[C@@H](C)O` [Peptide 5], the EC50 amounted to 26.1 nM on GLP-1 receptor and 3.51 nM at glucagon receptor. The matching figures for `CSCC[C@H](NC(=O)[C@H](CC(C)C)NC(=O)[C@H](Cc1c[nH]c2ccccc12)NC(=O)[C@H](CCC(N)=O)NC(=O)[C@@H](NC(=O)[C@H](Cc1ccccc1)NC(=O)[C@H](CC(=O)O)NC(=O)[C@@H]1CCCNC(=O)CNC(=O)CC[C@H](NC(=O)[C@H](CC(=O)O)NC(=O)[C@H](CC(C)C)NC(=O)[C@H](Cc2ccc(O)cc2)NC(=O)[C@H](CCCCN)NC(=O)[C@H](CO)NC(=O)[C@H](Cc2ccc(O)cc2)NC(=O)[C@H](CC(=O)O)NC(=O)[C@H](CO)NC(=O)[C@@H](NC(=O)[C@H](Cc2ccccc2)NC(=O)[C@@H](NC(=O)CNC(=O)[C@H](CCC(N)=O)NC(=O)[C@H](CO)NC(=O)[C@@H](N)Cc2c[nH]cn2)[C@@H](C)O)[C@@H](C)O)C(=O)N[C@@H](CCCNC(=N)N)C(=O)N[C@@H](CCCNC(=N)N)C(=O)N[C@@H](C)C(=O)N1)C(C)C)C(=O)N[C@@H](CC(N)=O)C(=O)N[C@H](C(=O)O)[C@@H](C)O` [Peptide 6]: 2.38 nM and 0.61 nM. The molecule `CSCC[C@H](NC(=O)[C@H](CC(C)C)NC(=O)[C@H](Cc1c[nH]c2ccccc12)NC(=O)[C@H](CCC(N)=O)NC(=O)[C@@H](NC(=O)[C@H](Cc1ccccc1)NC(=O)[C@H](CC(=O)O)NC(=O)[C@@H]1CCCNC(=O)C[C@H](NC(=O)[C@H](CO)NC(=O)[C@H](CC(=O)O)NC(=O)[C@H](CC(C)C)NC(=O)[C@H](Cc2ccc(O)cc2)NC(=O)[C@H](CCCCN)NC(=O)[C@H](CO)NC(=O)[C@H](Cc2ccc(O)cc2)NC(=O)[C@H](CC(=O)O)NC(=O)[C@H](CO)NC(=O)[C@@H](NC(=O)[C@H](Cc2ccccc2)NC(=O)[C@@H](NC(=O)CNC(=O)[C@H](CCC(N)=O)NC(=O)[C@H](CO)NC(=O)[C@@H](N)Cc2c[nH]cn2)[C@@H](C)O)[C@@H](C)O)C(=O)N[C@@H](CCCNC(=N)N)C(=O)N[C@@H](C)C(=O)N1)C(C)C)C(=O)N[C@@H](CC(N)=O)C(=O)N[C@H](C(=O)O)[C@@H](C)O` [Peptide 10] registered an EC50 on GLP-1 receptor of 16.2 nM. Consider `CSCC[C@H](NC(=O)[C@H](CC(C)C)NC(=O)[C@H](Cc1c[nH]c2ccccc12)NC(=O)[C@H](CCC(N)=O)NC(=O)[C@@H](NC(=O)[C@H](Cc1ccccc1)NC(=O)[C@H](CC(=O)O)NC(=O)[C@@H]1CCCNC(=O)CC[C@H](NC(=O)[C@H](CC(=O)O)NC(=O)[C@H](CC(C)C)NC(=O)[C@H](Cc2ccc(O)cc2)NC(=O)[C@H](CCCCN)NC(=O)[C@H](CO)NC(=O)[C@H](Cc2ccc(O)cc2)NC(=O)[C@H](CC(=O)O)NC(=O)[C@H](CO)NC(=O)[C@@H](NC(=O)[C@H](Cc2ccccc2)NC(=O)[C@@H](NC(=O)CNC(=O)[C@H](CCC(N)=O)NC(=O)[C@H](CO)NC(=O)[C@@H](N)Cc2c[nH]cn2)[C@@H](C)O)[C@@H](C)O)C(=O)N[C@@H](CCCNC(=N)N)C(=O)N[C@@H](CCCNC(=N)N)C(=O)N[C@@H](C)C(=O)N1)C(C)C)C(=O)N[C@@H](CC(N)=O)C(=O)N[C@H](C(=O)O)[C@@H](C)O` [Peptide 4], for which the values for the EC50 at GLP-1 receptor and on glucagon receptor were 23.8 nM and 1.27 nM, respectively.

The values above are taken from patent US8703701B2 (Indiana University Research and Technology Corporation, priority 2009, dated 2014).
